Data: article PMC8903741

Chains of the proteins cited; added tags and fusions are not shown. Lines headed by an entry give the natural chain unless they say otherwise; changes in a name come on top.
UniProt P14780: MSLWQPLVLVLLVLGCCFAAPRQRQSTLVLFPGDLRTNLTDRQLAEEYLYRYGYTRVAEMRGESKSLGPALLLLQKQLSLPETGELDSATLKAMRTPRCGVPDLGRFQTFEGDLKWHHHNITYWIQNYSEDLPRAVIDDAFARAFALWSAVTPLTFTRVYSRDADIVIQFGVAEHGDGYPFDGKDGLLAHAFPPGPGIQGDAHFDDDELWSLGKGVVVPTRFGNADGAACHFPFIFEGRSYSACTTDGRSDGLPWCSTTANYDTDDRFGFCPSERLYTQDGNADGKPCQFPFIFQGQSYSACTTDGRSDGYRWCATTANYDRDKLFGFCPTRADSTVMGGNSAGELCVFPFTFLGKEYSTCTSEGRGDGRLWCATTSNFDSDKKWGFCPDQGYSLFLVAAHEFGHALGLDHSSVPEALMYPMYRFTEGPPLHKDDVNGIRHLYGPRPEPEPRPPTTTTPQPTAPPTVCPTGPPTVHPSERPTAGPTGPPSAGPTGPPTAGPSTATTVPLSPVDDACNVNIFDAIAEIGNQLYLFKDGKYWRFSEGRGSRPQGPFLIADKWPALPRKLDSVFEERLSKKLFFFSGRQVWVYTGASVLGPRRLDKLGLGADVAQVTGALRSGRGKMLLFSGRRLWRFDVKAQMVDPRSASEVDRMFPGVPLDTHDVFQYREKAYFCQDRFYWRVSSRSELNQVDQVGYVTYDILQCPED

Target: recombinant anti-hMMP9 antibody (full-sized, VH and VL of GS-5745, human IgG4 constant region, human kappa constant region) (human)
Assay: ELISA; sandwich ELISA as above with antibody of clone #6-5 immobilised and different concentrations of hMMP9; dose-response curves fitted to a four-parameter equation

human matrix metalloproteinase 9 (from UniProt P14780 20-707) (enzyme)
limit of detection (LOD): 28.9 ng
